Experimental data published in patent US4444776A, “Dipyrido (4,3-B) (3,4-F) indoles, process for obtaining them, therapeutical use and pharmaceutical compositions” (priority 1977, dated 1984).

Experiments:
L 1210 leukemia = assay: Test 11: L 1210 leukemic mice, examples 7 and 8 (Table VIII); type: in vivo; parameters: unit not given beside the values; details: 0.05 mg/mouse, J+1
Description: This test was carried out with 10^3, 10^4 and 10^5 leukemic cells on day J. This test was also carried out with the compound of example 7, i.e. 1-[(γ-diethylaminopropyl)amino]-5-methyl-dipyrido [4,3-b][3,4-f] indole (compound 21).

L1210 leukemia = assay: Test 16: structure-activity of R'1 substitution, L1210 (Table XII); type: in vivo, mouse (C57B16xDBA/2)F1; parameters: unit not given here; details: day +1
Description: Test 16: Relationship between structure and activity of various dipyrido indoles differing by the R'1 substitution.
The R'1 substitution at the 1 position seems to be very important for the protective effect of the derivatives against L1210 tumor cell growth.
L1210 leukemia has been maintained by weekly passages on (C57B16xDBA/2)F1 mice. On day 0, mice were inoculated by I.P. route with various numbers of L1210 ascitic tumor cells in volumes of 0.1 ml. Subsequently as indicated, drugs were administrated in Ca^++ and Mg^++ free PBS solutions (Gibco) or in Mac Coy's medium (Gibso or Microbiological Associates).
[…] The decrease in the average of host life-span between each consecutive ten-fold increase in size of the leukemic cell inoculum was 2 days. According to the method of calculation of Dombernowsky, the doubling time was 0.615 days.

## Cc1c2ccnc(NCCCN(C)C)c2cc2c1[nH]c1ccncc12 [Example 8, 1-(γ-dimethylaminopropyl)amino-5-methyl-dipyrido-[4,3-b][3,4-f] indole]
L 1210 leukemia; 10^3 cells
  MTS: 14.7
L 1210 leukemia; 10^4 cells
  MTS: 14.7
L1210 leukemia; 10^4 cells, 2.5 mg/kg
  MST: 14.7
L1210 leukemia; 10^5 cells, 5 mg/kg
  MST: 13.8
